Laboratory results taken from publication PMC10009755, “Discovery and Characterization of BAY-805, a Potent and Selective Inhibitor of Ubiquitin-Specific Protease USP21” (Journal of Medicinal Chemistry, 2023).

The chains behind the UniProt entries cited, without tags or fusion partners. Where a name states a change or a piece, a line headed by the entry shows the natural chain unless it says otherwise. Residues count along the entry.
UniProt Q9UEE5: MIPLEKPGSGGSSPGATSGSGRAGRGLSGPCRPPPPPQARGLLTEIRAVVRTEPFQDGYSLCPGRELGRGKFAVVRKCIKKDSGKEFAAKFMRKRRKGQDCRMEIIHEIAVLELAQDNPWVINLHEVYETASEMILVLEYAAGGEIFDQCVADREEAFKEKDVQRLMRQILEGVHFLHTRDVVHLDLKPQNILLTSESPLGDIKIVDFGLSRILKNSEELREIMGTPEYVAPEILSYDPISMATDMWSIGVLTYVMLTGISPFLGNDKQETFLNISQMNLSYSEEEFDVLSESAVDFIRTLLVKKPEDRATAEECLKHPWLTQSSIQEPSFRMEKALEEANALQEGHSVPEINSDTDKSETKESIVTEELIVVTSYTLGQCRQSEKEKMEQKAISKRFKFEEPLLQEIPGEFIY
UniProt Q9Y3S1: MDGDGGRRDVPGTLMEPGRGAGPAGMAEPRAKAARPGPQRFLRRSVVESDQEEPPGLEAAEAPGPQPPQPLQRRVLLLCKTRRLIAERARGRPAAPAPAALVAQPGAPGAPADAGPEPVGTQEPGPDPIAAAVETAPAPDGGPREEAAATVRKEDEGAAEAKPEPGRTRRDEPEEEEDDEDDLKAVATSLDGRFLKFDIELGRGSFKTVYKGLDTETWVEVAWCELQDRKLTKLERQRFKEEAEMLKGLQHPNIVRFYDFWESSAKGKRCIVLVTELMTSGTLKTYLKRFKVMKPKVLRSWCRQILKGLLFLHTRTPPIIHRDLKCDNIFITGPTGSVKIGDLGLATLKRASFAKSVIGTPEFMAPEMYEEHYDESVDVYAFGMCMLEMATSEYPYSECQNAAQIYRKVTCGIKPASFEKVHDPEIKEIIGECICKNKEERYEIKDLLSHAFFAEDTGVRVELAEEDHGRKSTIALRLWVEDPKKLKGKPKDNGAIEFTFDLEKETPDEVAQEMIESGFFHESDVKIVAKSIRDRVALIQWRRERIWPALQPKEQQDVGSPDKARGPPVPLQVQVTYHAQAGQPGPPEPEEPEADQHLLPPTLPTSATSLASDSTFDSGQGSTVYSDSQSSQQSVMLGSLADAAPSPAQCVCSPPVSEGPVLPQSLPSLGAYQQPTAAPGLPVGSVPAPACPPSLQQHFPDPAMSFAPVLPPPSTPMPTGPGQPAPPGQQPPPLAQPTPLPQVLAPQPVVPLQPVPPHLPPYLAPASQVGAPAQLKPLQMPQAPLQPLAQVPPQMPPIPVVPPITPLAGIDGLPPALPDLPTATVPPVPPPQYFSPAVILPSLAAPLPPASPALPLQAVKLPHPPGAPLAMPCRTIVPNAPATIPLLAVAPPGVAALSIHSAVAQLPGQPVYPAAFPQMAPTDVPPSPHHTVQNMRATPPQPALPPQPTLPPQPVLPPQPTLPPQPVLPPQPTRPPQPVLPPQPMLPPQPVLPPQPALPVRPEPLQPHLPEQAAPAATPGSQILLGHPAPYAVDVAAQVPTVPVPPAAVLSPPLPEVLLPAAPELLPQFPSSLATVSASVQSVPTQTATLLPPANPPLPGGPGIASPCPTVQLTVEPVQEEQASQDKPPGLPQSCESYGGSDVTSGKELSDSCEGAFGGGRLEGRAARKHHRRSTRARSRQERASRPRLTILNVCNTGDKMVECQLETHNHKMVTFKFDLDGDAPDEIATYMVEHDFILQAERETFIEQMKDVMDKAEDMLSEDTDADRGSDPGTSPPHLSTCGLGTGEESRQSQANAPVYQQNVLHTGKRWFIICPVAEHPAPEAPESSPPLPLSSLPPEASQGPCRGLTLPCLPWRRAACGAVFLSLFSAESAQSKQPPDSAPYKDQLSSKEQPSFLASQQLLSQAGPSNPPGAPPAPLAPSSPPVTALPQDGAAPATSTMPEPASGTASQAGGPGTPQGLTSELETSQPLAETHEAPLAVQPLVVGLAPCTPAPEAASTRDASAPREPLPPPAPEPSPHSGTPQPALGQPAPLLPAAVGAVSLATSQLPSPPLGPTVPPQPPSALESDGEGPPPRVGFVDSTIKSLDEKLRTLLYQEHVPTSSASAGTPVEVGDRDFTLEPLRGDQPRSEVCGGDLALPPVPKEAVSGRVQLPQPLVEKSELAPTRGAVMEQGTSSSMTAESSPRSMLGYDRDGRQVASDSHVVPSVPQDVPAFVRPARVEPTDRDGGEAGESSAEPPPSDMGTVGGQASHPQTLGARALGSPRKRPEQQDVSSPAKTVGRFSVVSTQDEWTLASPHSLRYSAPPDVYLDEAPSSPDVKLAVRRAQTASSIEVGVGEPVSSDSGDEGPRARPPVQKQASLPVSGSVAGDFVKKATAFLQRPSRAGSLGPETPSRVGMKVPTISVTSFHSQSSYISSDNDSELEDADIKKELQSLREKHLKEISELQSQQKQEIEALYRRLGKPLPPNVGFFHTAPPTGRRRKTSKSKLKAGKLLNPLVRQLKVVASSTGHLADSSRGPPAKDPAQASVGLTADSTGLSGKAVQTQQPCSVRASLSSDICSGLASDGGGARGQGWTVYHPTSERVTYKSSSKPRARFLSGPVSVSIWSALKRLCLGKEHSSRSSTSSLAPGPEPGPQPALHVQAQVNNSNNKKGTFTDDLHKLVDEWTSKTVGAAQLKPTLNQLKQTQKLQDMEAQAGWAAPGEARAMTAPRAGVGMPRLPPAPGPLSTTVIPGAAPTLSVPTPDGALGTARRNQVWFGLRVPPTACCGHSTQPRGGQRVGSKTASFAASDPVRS
UniProt P07948: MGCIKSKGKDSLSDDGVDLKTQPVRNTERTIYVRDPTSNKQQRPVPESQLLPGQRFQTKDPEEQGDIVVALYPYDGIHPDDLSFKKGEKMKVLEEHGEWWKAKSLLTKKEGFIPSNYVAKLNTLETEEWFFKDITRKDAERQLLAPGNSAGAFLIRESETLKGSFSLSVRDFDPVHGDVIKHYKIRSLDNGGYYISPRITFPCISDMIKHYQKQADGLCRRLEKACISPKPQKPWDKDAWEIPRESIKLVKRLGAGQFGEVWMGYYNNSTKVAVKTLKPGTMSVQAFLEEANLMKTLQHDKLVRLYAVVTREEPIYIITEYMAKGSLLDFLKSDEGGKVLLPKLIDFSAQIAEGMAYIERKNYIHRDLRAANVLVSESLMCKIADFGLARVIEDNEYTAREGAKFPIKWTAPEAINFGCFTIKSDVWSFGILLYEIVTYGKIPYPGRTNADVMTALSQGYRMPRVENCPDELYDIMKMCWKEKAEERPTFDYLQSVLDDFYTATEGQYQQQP
UniProt O15530: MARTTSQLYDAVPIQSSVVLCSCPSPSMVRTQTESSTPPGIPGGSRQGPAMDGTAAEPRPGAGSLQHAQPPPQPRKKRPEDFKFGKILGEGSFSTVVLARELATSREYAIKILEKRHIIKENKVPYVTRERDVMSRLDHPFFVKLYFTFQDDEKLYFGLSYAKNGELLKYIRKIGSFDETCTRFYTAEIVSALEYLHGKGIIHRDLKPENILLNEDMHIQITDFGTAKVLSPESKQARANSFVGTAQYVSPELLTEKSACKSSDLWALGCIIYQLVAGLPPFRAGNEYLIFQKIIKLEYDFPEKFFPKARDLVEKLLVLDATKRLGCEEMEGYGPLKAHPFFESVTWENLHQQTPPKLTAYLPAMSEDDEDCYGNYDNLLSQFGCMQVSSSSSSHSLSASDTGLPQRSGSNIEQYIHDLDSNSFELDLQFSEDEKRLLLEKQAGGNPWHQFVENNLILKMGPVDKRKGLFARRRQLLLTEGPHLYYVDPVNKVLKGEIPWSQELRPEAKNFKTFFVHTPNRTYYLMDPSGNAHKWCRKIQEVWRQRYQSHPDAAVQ
UniProt O75604, 251-605: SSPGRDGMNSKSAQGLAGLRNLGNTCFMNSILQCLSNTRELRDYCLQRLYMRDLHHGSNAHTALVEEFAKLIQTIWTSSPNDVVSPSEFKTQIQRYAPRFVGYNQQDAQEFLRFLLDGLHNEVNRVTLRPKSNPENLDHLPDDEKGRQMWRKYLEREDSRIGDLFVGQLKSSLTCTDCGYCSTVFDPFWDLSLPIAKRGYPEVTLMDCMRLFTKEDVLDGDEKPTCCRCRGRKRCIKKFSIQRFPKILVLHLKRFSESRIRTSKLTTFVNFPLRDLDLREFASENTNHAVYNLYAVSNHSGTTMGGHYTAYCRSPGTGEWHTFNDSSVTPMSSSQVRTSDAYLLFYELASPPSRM
UniProt P68400, whole entry: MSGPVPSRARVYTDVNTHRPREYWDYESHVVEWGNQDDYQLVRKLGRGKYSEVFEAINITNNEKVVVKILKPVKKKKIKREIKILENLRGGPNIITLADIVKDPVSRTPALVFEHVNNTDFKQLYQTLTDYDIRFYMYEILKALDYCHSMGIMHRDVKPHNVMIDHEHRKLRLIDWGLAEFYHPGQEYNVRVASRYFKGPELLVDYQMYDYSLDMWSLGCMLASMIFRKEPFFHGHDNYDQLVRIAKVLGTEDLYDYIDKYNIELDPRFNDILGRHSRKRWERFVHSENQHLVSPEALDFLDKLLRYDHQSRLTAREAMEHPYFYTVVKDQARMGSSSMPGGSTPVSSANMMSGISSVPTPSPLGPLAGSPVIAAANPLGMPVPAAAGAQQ
UniProt P45983, 1-384 isoform P45983-2: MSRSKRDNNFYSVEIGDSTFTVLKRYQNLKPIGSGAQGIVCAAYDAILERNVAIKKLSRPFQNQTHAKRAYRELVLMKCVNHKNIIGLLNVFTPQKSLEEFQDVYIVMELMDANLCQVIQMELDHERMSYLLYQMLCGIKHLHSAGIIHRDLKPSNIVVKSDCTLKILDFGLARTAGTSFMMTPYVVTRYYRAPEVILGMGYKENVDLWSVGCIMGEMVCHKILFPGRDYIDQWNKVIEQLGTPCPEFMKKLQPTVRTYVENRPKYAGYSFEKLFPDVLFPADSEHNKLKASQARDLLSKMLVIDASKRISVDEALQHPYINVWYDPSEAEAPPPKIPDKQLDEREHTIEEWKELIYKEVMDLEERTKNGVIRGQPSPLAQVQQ
UniProt P34947, whole entry: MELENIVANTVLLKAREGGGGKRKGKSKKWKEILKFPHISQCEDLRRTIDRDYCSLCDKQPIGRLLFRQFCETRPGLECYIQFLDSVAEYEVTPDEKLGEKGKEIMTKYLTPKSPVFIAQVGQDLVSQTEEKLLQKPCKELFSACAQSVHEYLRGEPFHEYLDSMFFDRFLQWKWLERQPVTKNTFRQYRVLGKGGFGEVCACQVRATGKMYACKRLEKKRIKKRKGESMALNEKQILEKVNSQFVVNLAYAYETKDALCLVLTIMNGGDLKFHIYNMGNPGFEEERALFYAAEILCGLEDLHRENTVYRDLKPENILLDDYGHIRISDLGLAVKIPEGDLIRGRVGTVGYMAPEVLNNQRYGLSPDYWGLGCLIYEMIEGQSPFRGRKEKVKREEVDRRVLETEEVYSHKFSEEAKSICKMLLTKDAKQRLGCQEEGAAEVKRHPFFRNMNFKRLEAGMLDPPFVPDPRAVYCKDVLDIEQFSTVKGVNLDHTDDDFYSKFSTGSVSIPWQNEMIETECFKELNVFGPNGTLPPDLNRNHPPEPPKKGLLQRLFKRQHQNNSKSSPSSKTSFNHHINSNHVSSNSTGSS
UniProt O15111: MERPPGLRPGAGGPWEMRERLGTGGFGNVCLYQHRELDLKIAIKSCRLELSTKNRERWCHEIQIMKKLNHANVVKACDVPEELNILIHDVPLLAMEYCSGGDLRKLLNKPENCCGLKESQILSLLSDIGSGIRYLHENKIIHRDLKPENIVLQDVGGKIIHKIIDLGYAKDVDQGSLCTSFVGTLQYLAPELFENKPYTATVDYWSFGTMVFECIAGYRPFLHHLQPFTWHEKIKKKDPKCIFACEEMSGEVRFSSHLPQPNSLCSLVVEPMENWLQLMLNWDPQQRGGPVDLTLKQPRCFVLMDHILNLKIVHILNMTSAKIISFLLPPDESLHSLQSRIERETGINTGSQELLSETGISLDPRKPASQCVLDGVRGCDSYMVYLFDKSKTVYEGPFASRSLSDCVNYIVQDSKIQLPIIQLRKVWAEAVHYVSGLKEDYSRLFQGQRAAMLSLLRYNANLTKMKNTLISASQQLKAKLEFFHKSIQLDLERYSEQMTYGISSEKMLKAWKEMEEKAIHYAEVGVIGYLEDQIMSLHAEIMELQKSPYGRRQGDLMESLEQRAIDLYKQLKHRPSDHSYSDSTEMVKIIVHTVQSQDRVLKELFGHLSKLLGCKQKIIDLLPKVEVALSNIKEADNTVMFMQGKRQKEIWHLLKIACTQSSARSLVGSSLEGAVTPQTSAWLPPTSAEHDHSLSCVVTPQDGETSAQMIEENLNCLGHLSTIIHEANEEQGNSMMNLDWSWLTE
UniProt Q6P2M8: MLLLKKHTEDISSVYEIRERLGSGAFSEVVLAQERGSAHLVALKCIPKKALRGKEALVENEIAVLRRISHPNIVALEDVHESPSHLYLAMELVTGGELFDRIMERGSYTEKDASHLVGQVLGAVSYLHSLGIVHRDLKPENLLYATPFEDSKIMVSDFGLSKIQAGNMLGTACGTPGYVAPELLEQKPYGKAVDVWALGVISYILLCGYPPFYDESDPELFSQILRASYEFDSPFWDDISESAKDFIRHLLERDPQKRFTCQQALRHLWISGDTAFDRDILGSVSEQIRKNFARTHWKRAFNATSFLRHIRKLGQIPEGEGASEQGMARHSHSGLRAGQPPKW

Columns and labels:
DRAK1(h) = DRAK1(h) (Homo sapiens, UniProt Q9UEE5); assay: biochemical
WNK2(h) = WNK2(h) (Homo sapiens, UniProt Q9Y3S1); assay: biochemical
CDKL4(h) = CDKL4(h) (Homo sapiens, UniProt Q5MAI5); assay: biochemical
BTK(h) = BTK(h) (Homo sapiens, UniProt Q06187); assay: biochemical
MAPK2(h) = MAPK2(h) (Homo sapiens, UniProt P28482); assay: biochemical
Vasopressin V1A = Vasopressin V1A (Homo sapiens, UniProt P37288); assay: biochemical; settings: read-out: % Inh.
Lyn(h) = Lyn(h) (Homo sapiens, UniProt P07948); assay: biochemical
JOSD1 = JOSD1 (Homo sapiens, UniProt Q15040); assay: biochemical; settings: read-out: Activity (% Control)
Glutamate, NMDA, Glycine = settings: 10 µM
GABAB, Non-Selective = settings: 10 µM
SIK(h) = SIK(h) (Homo sapiens, UniProt P57059); assay: biochemical
PDK1(h) = PDK1(h) (Homo sapiens, UniProt O15530); assay: biochemical
USP2 = USP2 (Homo sapiens, UniProt O75604); assay: biochemical; settings: read-out: Activity (% Control)
MuSK(h) = MuSK(h) (Homo sapiens, UniProt O15146); assay: biochemical
DAPK2(h) = DAPK2(h) (Homo sapiens, UniProt Q9UIK4); assay: biochemical
EphB4(h) = EphB4(h) (Homo sapiens, UniProt P54760); assay: biochemical
CK2(h) = CK2(h) (Homo sapiens, UniProt P68400); assay: biochemical
Glutamate, NMDA, Agonism = settings: 10 µM
Wee1B(h) = Wee1B(h) (Homo sapiens, UniProt P0C1S8); assay: biochemical
JNK1alpha1(h) = JNK1alpha1(h) (Homo sapiens, UniProt P45983); assay: biochemical
PKD3(h) = PKD3(h) (Homo sapiens, UniProt O94806); assay: biochemical
CHK1(h) = CHK1(h) (Homo sapiens, UniProt O14757); assay: biochemical
TAO1(h) = TAO1(h) (Homo sapiens, UniProt Q7L7X3); assay: biochemical
CLIK1(h) = CLIK1(h) (Homo sapiens, UniProt Q8TDR2); assay: biochemical
GRK5(h) = GRK5(h) (Homo sapiens, UniProt P34947); assay: biochemical
IKKalpha(h) = IKKalpha(h) (Homo sapiens, UniProt O15111); assay: biochemical
MDA-MB-231 = assay: cells; settings: Homo sapiens, MDA-MB-231, 72 h, read-out: antiproliferative effect
PKR(h) = PKR(h) (Homo sapiens, UniProt P19525); assay: biochemical
Tec(h) activated = Tec(h) activated (Homo sapiens, UniProt P42680); assay: biochemical
[1] = tested on: GABAA, Flunitrazepam, Central; settings: 10 µM
DYRK2(h) = DYRK2(h) (Homo sapiens, UniProt Q92630); assay: biochemical
HRI(h) = HRI(h) (Homo sapiens, UniProt Q9BQI3); assay: biochemical
USP30 = USP30 (Homo sapiens, UniProt Q70CQ3); assay: biochemical; settings: read-out: Activity (% Control)
ULK1(h) = ULK1(h) (Homo sapiens, UniProt O75385); assay: biochemical
Motilin = Motilin (Homo sapiens, UniProt O43193); assay: biochemical; settings: read-out: % Inh.
CaMKIbeta(h) = CaMKIbeta(h) (Homo sapiens, UniProt Q6P2M8); assay: biochemical
MLK3(h) = MLK3(h) (Homo sapiens, UniProt Q16584); assay: biochemical
ASK1(h) = ASK1(h) (Homo sapiens, UniProt Q99683); assay: biochemical
TrkC(h) = TrkC(h) (Homo sapiens, UniProt Q16288); assay: biochemical
CSK(h) = CSK(h) (Homo sapiens, UniProt P41240); assay: biochemical
SGK3(h) = SGK3(h) (Homo sapiens, UniProt Q96BR1); assay: biochemical
Fer(h) = Fer(h) (Homo sapiens, UniProt P16591); assay: biochemical

## CC(C)C[C@H](NC(=O)C1(C(F)(F)F)CCCCC1)C(=O)Nc1nnc(Cc2ccc(C#N)cc2)s1 [Compound 22, CC(C)C[C@H](NC(=O)C1(CCCCC1)C(F)(F)F)C(=O)Nc2nnc(Cc3ccc(cc3)C#N)s2]
DRAK1(h)
  inhibition at 10 µM: -21.9%
WNK2(h)
  inhibition at 10 µM: 2.53%
CDKL4(h)
  inhibition at 10 µM: -4.09%
BTK(h)
  inhibition at 10 µM: 0.23%
MAPK2(h)
  inhibition at 10 µM: 4.81%
Vasopressin V1A
  inhibition at 10 µM: 5%
Lyn(h)
  inhibition at 10 µM: 3.48%
JOSD1
  remaining activity at 1 µM: 100%
  remaining activity at 10 µM: 99%
Glutamate, NMDA, Glycine
  % Inh.: 19%
GABAB, Non-Selective
  % Inh.: -1%
SIK(h)
  inhibition at 10 µM: 6.07%
PDK1(h)
  inhibition at 10 µM: 9.31%
USP2
  remaining activity at 10 µM: 79%
  remaining activity at 50 µM: 60%
MuSK(h)
  inhibition at 10 µM: 1.15%
DAPK2(h)
  inhibition at 10 µM: 25.2%
EphB4(h)
  inhibition at 10 µM: -37.8%
CK2(h)
  inhibition at 10 µM: -2.03%
Glutamate, NMDA, Agonism
  % Inh.: 5
Wee1B(h)
  inhibition at 10 µM: 11.7%
JNK1alpha1(h)
  inhibition at 10 µM: -0.15%
PKD3(h)
  inhibition at 10 µM: 7.79%
CHK1(h)
  inhibition at 10 µM: -6.25%
TAO1(h)
  inhibition at 10 µM: -1.18%
CLIK1(h)
  inhibition at 10 µM: -3.36%
GRK5(h)
  inhibition at 10 µM: -1.71%
IKKalpha(h)
  inhibition at 10 µM: -8.97%
MDA-MB-231
  IC50: > 30 µM
PKR(h)
  inhibition at 10 µM: 3.56%
Tec(h) activated
  inhibition at 10 µM: 7.04%
[1]
  % Inh.: -10%
DYRK2(h)
  inhibition at 10 µM: -1.89%
HRI(h)
  inhibition at 10 µM: -10.7%
USP30
  remaining activity at 1 µM: 98%
  remaining activity at 10 µM: 103%
ULK1(h)
  inhibition at 10 µM: -0.03%
Motilin
  inhibition at 10 µM: 4%
CaMKIbeta(h)
  inhibition at 10 µM: -1.47%
MLK3(h)
  inhibition at 10 µM: 0%
ASK1(h)
  inhibition at 10 µM: 2.31%
TrkC(h)
  inhibition at 10 µM: 4.31%
CSK(h)
  inhibition at 10 µM: -17.2%
SGK3(h)
  inhibition at 10 µM: -2.22%
Fer(h)
  inhibition at 10 µM: 0.43%

## CC(C)C[C@@H](NC(=O)C1(C(F)(F)F)CCCCC1)C(=O)Nc1nnc(Cc2ccc(C#N)cc2)s1 [Compound 21, N-[(1R)-1-[[5-[(4-Cyanophenyl)methyl]-1,3,4-thiadiazol-2-yl]carbamoyl]-3-methyl-butyl]-1-(trifluoromethyl)cyclohexanecarboxamide]
DRAK1(h)
  inhibition at 10 µM: -23.4%
WNK2(h)
  inhibition at 10 µM: -5.83%
CDKL4(h)
  inhibition at 10 µM: 0.71%
BTK(h)
  inhibition at 10 µM: 7.26%
MAPK2(h)
  inhibition at 10 µM: 7.68%
Vasopressin V1A
  inhibition at 10 µM: 2%
Lyn(h)
  inhibition at 10 µM: -1.62%
JOSD1
  remaining activity at 1 µM: 108%
  remaining activity at 10 µM: 101%
Glutamate, NMDA, Glycine
  % Inh.: 6%
GABAB, Non-Selective
  % Inh.: -2%
SIK(h)
  inhibition at 10 µM: 9.31%
PDK1(h)
  inhibition at 10 µM: 11.4%
USP2
  remaining activity at 10 µM: 79%
  remaining activity at 50 µM: 73%
MuSK(h)
  inhibition at 10 µM: 6.14%
DAPK2(h)
  inhibition at 10 µM: 1.79%
EphB4(h)
  inhibition at 10 µM: -25.6%
CK2(h)
  inhibition at 10 µM: 1.69%
Glutamate, NMDA, Agonism
  % Inh.: 7
Wee1B(h)
  inhibition at 10 µM: 7.44%
JNK1alpha1(h)
  inhibition at 10 µM: 9.47%
PKD3(h)
  inhibition at 10 µM: -7.09%
CHK1(h)
  inhibition at 10 µM: -13.9%
TAO1(h)
  inhibition at 10 µM: 4.17%
CLIK1(h)
  inhibition at 10 µM: 6.36%
GRK5(h)
  inhibition at 10 µM: -6.49%
IKKalpha(h)
  inhibition at 10 µM: -10.4%
MDA-MB-231
  IC50: > 30 µM
PKR(h)
  inhibition at 10 µM: 6.22%
Tec(h) activated
  inhibition at 10 µM: 12.7%
[1]
  % Inh.: -7%
DYRK2(h)
  inhibition at 10 µM: 4.51%
HRI(h)
  inhibition at 10 µM: -14.5%
USP30
  remaining activity at 1 µM: 102%
  remaining activity at 10 µM: 97%
ULK1(h)
  inhibition at 10 µM: 6.45%
Motilin
  inhibition at 10 µM: 10%
CaMKIbeta(h)
  inhibition at 10 µM: 1.26%
MLK3(h)
  inhibition at 10 µM: -2.48%
ASK1(h)
  inhibition at 10 µM: 3.07%
TrkC(h)
  inhibition at 10 µM: 9.76%
CSK(h)
  inhibition at 10 µM: -13.9%
SGK3(h)
  inhibition at 10 µM: 6.43%
Fer(h)
  inhibition at 10 µM: 14.1%
